Reference: PubChem BioAssay (NCI)
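Each compound was tested at five concentrations against cells in 96-well plates for 48 hours. TGI is the concentration that stops growth completely.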

Key:
Experiment in all cases: DTP human tumour cell line panel, 48 h
[1] = system: RPMI-8226 leukemia
[2] = system: SK-MEL-5 melanoma
[3] = system: SW-620 colon
[4] = system: NCI-H322M lung
[5] = system: HCT-15 colon
[6] = system: SK-MEL-2 melanoma
[7] = system: U251 CNS
[8] = system: SF-539 CNS
[9] = system: SF-268 CNS
[10] = system: COLO 205 colon
[11] = system: KM12 colon
[12] = system: CAKI-1 renal
[13] = system: HS 578T breast
[14] = system: HCT-116 colon
[15] = system: SN12C renal
[16] = system: MDA-N
[17] = system: EKVX NSCLC
[18] = system: SNB-19 CNS
[19] = system: UACC-257 melanoma
[20] = system: OVCAR-5 ovarian
[21] = system: A498 renal
[22] = system: NCI-H460 lung
[23] = system: MDA-MB-231 breast
[24] = system: TK-10 renal
[25] = system: NCI/ADR-RES ovarian
[26] = system: HL-60(TB) leukemia
[27] = system: A549 NSCLC
[28] = system: SK-OV-3 ovarian
[29] = system: LOX IMVI melanoma
[30] = system: BT-549 breast
[31] = system: MOLT-4 leukemia
[32] = system: T-47D breast
[33] = system: 786-0 renal
[34] = system: OVCAR-4 ovarian
[35] = system: PC-3 prostate
[36] = system: SR leukemia
[37] = system: RXF 393 renal
[38] = system: HT29 colon
[39] = system: NCI-H226 lung
[40] = system: OVCAR-3 ovarian
[41] = system: MCF7 breast
[42] = system: ACHN renal
[43] = system: HCC-2998 colon
[44] = system: UACC-62 melanoma
[45] = system: OVCAR-8 ovarian
[46] = system: IGROV1 ovarian
[47] = system: SNB-75 CNS
[48] = system: SK-MEL-28 melanoma
[49] = system: MDA-MB-435
[50] = system: HOP-92 NSCLC
[51] = system: HOP-62 NSCLC
[52] = system: M14 melanoma
[53] = system: DU-145 prostate
[54] = system: SF-295 CNS
[55] = system: NCI-H522 lung
[56] = system: UO-31 renal

Measured: TGI

NCCC(N)CSP(=O)(O)O (stereo unspecified)
> 100 µM: all assays above
